In one assay the target is T1, human GLP-1 receptor (Homo sapiens, UniProt P43220).
T1 construct: expressed in transfected cells; host or cells: HEK-293
In words: cAMP response (HTRF) of HEK-293 cells stably expressing human GLP-1 receptor. The class given is cell-based. To be noted: read-out: EC50 hGLP-1R. A general note: In TR-FRET formats the signal depends on donor and acceptor labels being close together.

Protein sequences, listed by entry. Tags and fused reporters are not part of them. Residues count along the entry.
UniProt P43220, 24-463: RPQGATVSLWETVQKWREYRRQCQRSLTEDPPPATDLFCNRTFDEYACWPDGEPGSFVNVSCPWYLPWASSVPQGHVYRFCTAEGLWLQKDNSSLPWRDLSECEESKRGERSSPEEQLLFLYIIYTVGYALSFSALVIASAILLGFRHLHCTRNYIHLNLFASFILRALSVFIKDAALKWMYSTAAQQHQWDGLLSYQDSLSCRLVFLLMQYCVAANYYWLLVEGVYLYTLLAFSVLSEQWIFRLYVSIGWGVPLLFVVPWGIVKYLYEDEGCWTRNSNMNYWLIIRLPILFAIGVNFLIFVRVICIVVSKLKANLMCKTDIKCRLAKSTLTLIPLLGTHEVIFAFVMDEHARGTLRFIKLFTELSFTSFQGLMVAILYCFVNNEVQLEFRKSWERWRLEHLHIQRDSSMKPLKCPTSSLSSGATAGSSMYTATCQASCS
UniProt P47871, 26-477: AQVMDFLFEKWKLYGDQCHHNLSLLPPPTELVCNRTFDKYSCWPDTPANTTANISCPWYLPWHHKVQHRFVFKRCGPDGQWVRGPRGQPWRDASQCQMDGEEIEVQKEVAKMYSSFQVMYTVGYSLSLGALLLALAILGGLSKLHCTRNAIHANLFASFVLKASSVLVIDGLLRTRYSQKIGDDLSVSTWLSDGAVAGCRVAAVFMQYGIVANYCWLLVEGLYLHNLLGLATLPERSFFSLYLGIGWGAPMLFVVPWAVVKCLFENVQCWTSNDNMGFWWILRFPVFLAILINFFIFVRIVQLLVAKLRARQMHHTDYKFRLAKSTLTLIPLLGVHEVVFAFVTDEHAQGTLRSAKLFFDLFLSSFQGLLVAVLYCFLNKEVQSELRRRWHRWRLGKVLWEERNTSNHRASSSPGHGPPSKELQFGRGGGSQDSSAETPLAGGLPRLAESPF

The target of another assay is T2, human glucagon receptor (Homo sapiens, UniProt P47871).
T2 construct: expressed in transfected cells; host or cells: HEK-293
In words: cAMP response (HTRF) of HEK-293 cells stably expressing human glucagon receptor. To be noted: read-out: EC50 hGlucagon-R. The class given is cell-based.

Setting [1] is: Table 8, comparison testing of position 14.

Where two headings read alike, the source gives them in different places.

As for `CCCCCCCCCCCCCCCC(=O)NCCCC[C@H](NC(=O)[C@H](CCC(N)=O)NC(=O)[C@H](CCCCN)NC(=O)[C@H](CO)NC(=O)[C@H](CC(C)C)NC(=O)[C@H](CC(=O)O)NC(=O)[C@H](CO)NC(=O)[C@@H](NC(=O)[C@H](Cc1ccccc1)NC(=O)[C@@H](NC(=O)CNC(=O)[C@H](CCC(N)=O)NC(=O)C(C)(C)NC(=O)[C@@H](N)Cc1c[nH]cn1)[C@@H](C)O)[C@@H](C)O)C(=O)N[C@@H](CCC(=O)O)C(=O)N[C@@H](CO)C(=O)N[C@@H](CCC(N)=O)C(=O)N[C@@H](C)C(=O)N[C@@H](C)C(=O)N[C@@H](CCC(N)=O)C(=O)N[C@@H](CC(=O)O)C(=O)N[C@@H](Cc1ccccc1)C(=O)N[C@H](C(=O)N[C@@H](CCC(=O)O)C(=O)N[C@@H](Cc1c[nH]c2ccccc12)C(=O)N[C@@H](CC(C)C)C(=O)N[C@@H](CCCCN)C(=O)N[C@@H](C)C(=O)NCC(=O)NCC(=O)N1CCC[C@H]1C(=O)N[C@@H](CO)C(=O)N[C@@H](CO)C(=O)NCC(=O)N[C@@H](C)C(=O)N1CCC[C@H]1C(=O)N1CCC[C@H]1C(=O)N1CCC[C@H]1C(=O)N[C@@H](CO)C(N)=O)[C@@H](C)CC` [compound 43], the EC50 was found to be 0.0041 nM on human GLP-1 receptor (Table 5, cAMP, HEK-293) and 0.443 nM at human glucagon receptor (Table 5, cAMP, HEK-293).

For the compound `CC[C@H](C)[C@H](NC(=O)[C@H](Cc1ccccc1)NC(=O)[C@H](CC(=O)O)NC(=O)[C@H](CCC(N)=O)NC(=O)[C@H](C)NC(=O)[C@H](CCCNC(=N)N)NC(=O)[C@H](CCCNC(=N)N)NC(=O)[C@H](CO)NC(=O)[C@H](CC(=O)O)NC(=O)[C@H](CCCCN)NC(=O)[C@H](CCC(N)=O)NC(=O)[C@H](CCCCN)NC(=O)[C@H](CO)NC(=O)[C@H](CC(C)C)NC(=O)[C@H](CC(=O)O)NC(=O)[C@H](CO)NC(=O)[C@@H](NC(=O)[C@H](Cc1ccccc1)NC(=O)[C@@H](NC(=O)CNC(=O)[C@H](CCC(N)=O)NC(=O)[C@@H](CO)NC(=O)[C@@H](N)Cc1c[nH]cn1)[C@@H](C)O)[C@@H](C)O)C(=O)N[C@@H](CCC(=O)O)C(=O)N[C@@H](Cc1c[nH]c2ccccc12)C(=O)N[C@@H](CC(C)C)C(=O)N[C@@H](CCCCN)C(=O)N[C@@H](CC(N)=O)C(=O)NCC(=O)NCC(=O)N1CCC[C@H]1C(=O)N[C@@H](CO)C(=O)N[C@@H](CO)C(=O)NCC(=O)N[C@@H](C)C(=O)N1CCC[C@H]1C(=O)N1CCC[C@H]1C(=O)N1CCC[C@H]1C(=O)N[C@@H](CO)C(N)=O` [compound 183], the EC50 at human GLP-1 receptor (setting [1]) amounted to 1.02 nM; on human glucagon receptor (setting [1]), 0.916 nM.

On to `CCCCCCCCCCCCCCCC(=O)N[C@@H](CCC(=O)NCCCC[C@H](NC(=O)[C@H](CCC(N)=O)NC(=O)[C@H](CCCCN)NC(=O)[C@H](CO)NC(=O)[C@H](CC(C)C)NC(=O)[C@H](CC(=O)O)NC(=O)[C@H](CO)NC(=O)[C@@H](NC(=O)[C@H](Cc1ccccc1)NC(=O)[C@@H](NC(=O)CNC(=O)[C@H](CCC(N)=O)NC(=O)[C@@H](CO)NC(=O)[C@@H](N)Cc1c[nH]cn1)[C@@H](C)O)[C@@H](C)O)C(=O)N[C@@H](CCC(=O)O)C(=O)N[C@@H](CO)C(=O)N[C@@H](CCCCN)C(=O)N[C@@H](C)C(=O)N[C@@H](C)C(=O)N[C@@H](CCC(N)=O)C(=O)N[C@@H](CCC(=O)O)C(=O)N[C@@H](Cc1ccccc1)C(=O)N[C@H](C(=O)N[C@@H](CCC(=O)O)C(=O)N[C@@H](Cc1c[nH]c2ccccc12)C(=O)N[C@@H](CC(C)C)C(=O)N[C@@H](CCCCN)C(=O)N[C@@H](C)C(=O)NCC(=O)NCC(=O)N1CCC[C@H]1C(=O)N[C@@H](CO)C(=O)N[C@@H](CO)C(=O)NCC(=O)N[C@@H](C)C(=O)N1CCC[C@H]1C(=O)N1CCC[C@H]1C(=O)N1CCC[C@H]1C(=O)N[C@@H](CO)C(N)=O)[C@@H](C)CC)C(=O)O` [compound 28], for which the EC50 was 0.0055 nM on human GLP-1 receptor (Table 5, cAMP, HEK-293) and 0.0126 nM on human glucagon receptor (Table 5, cAMP, HEK-293).

Regarding `CCCCCCCCCCCCCCCC(=O)NCCCC[C@H](NC(=O)[C@H](CCC(N)=O)NC(=O)[C@H](CCCCN)NC(=O)[C@H](CO)NC(=O)[C@H](CC(C)C)NC(=O)[C@H](CC(=O)O)NC(=O)[C@H](CO)NC(=O)[C@@H](NC(=O)[C@H](Cc1ccccc1)NC(=O)[C@@H](NC(=O)CNC(=O)[C@H](CCC(N)=O)NC(=O)[C@@H](CO)NC(=O)[C@@H](N)Cc1c[nH]cn1)[C@@H](C)O)[C@@H](C)O)C(=O)N[C@@H](CCC(=O)O)C(=O)N[C@@H](CO)C(=O)N[C@@H](CCCCN)C(=O)N[C@@H](C)C(=O)N[C@@H](C)C(=O)N[C@@H](CCC(N)=O)C(=O)N[C@@H](CC(=O)O)C(=O)N[C@@H](Cc1ccccc1)C(=O)N[C@H](C(=O)N[C@@H](CCC(=O)O)C(=O)N[C@@H](Cc1c[nH]c2ccccc12)C(=O)N[C@@H](CC(C)C)C(=O)N[C@@H](CCCCN)C(=O)N[C@@H](C)C(=O)NCC(=O)NCC(=O)N1CCC[C@H]1C(=O)N[C@@H](CO)C(=O)N[C@@H](CO)C(=O)NCC(=O)N[C@@H](C)C(=O)N1CCC[C@H]1C(=O)N1CCC[C@H]1C(=O)N1CCC[C@H]1C(=O)N[C@@H](CO)C(N)=O)[C@@H](C)CC` [compound 32], the EC50 on human GLP-1 receptor (Table 5, cAMP, HEK-293) was determined as 0.0102 nM; at human glucagon receptor (Table 5, cAMP, HEK-293) it was 0.188 nM.

On to `CCCCCCCCCCCCCCCC(=O)N[C@@H](CCC(=O)NCCCC[C@H](NC(=O)[C@H](CCC(N)=O)NC(=O)[C@H](CCCCN)NC(=O)[C@H](CO)NC(=O)[C@H](CC(C)C)NC(=O)[C@H](CC(=O)O)NC(=O)[C@H](CO)NC(=O)[C@@H](NC(=O)[C@H](Cc1ccccc1)NC(=O)[C@@H](NC(=O)CNC(=O)[C@H](CCC(N)=O)NC(=O)[C@@H](CO)NC(=O)[C@@H](N)Cc1c[nH]cn1)[C@@H](C)O)[C@@H](C)O)C(=O)N[C@@H](CC(=O)O)C(=O)N[C@@H](CO)C(=O)N[C@@H](CCCNC(=N)N)C(=O)N[C@@H](CCCNC(=N)N)C(=O)N[C@@H](C)C(=O)N[C@@H](CCC(N)=O)C(=O)N[C@@H](CC(=O)O)C(=O)N[C@@H](Cc1ccccc1)C(=O)N[C@H](C(=O)N[C@@H](CCC(=O)O)C(=O)N[C@@H](Cc1c[nH]c2ccccc12)C(=O)N[C@@H](CC(C)C)C(=O)N[C@@H](CCCCN)C(=O)N[C@@H](CC(N)=O)C(=O)N[C@H](C(=O)NCC(=O)N1CCC[C@H]1C(=O)N[C@@H](CO)C(=O)N[C@@H](CO)C(=O)NCC(=O)N[C@@H](C)C(=O)N1CCC[C@H]1C(=O)N1CCC[C@H]1C(=O)N1CCC[C@H]1C(=O)N[C@@H](CO)C(N)=O)[C@@H](C)O)[C@@H](C)CC)C(=O)O` [compound 92], for which the EC50 at human GLP-1 receptor (Table 5, cAMP, HEK-293) was 0.026 nM; at human glucagon receptor (Table 5, cAMP, HEK-293), 0.001 nM.

Take `CCCCCCCCCCCCCCCC(=O)N[C@@H](CCC(=O)NCCCC[C@H](NC(=O)[C@H](CCC(N)=O)NC(=O)[C@H](CCCCN)NC(=O)[C@H](CO)NC(=O)[C@H](CC(C)C)NC(=O)[C@H](CC(=O)O)NC(=O)[C@H](CO)NC(=O)[C@@H](NC(=O)[C@H](Cc1ccccc1)NC(=O)[C@@H](NC(=O)CNC(=O)[C@H](CCC(N)=O)NC(=O)[C@@H](CO)NC(=O)[C@@H](N)Cc1c[nH]cn1)[C@@H](C)O)[C@@H](C)O)C(=O)N[C@@H](CCC(=O)O)C(=O)N[C@@H](CCC(=O)O)C(=O)N[C@@H](CCC(=O)O)C(=O)N[C@@H](C)C(=O)N[C@@H](C)C(=O)NC(C)(C)C(=O)N[C@@H](CC(=O)O)C(=O)N[C@@H](Cc1ccccc1)C(=O)N[C@H](C(=O)N[C@@H](CCC(=O)O)C(=O)N[C@@H](Cc1c[nH]c2ccccc12)C(=O)N[C@@H](CC(C)C)C(=O)N[C@@H](CCCCN)C(=O)N[C@@H](C)C(=O)NCC(=O)NCC(=O)N1CCC[C@H]1C(=O)N[C@@H](CO)C(=O)N[C@@H](CO)C(=O)NCC(=O)N[C@@H](C)C(=O)N1CCC[C@H]1C(=O)N1CCC[C@H]1C(=O)N1CCC[C@H]1C(=O)N[C@@H](CO)C(N)=O)[C@@H](C)CC)C(=O)O` [compound 18]: the EC50 stood at 0.0026 nM at human GLP-1 receptor (Table 5, cAMP, HEK-293) and 0.152 nM at human glucagon receptor (Table 5, cAMP, HEK-293).

Regarding `CCCCCCCCCCCCCCCC(=O)N[C@@H](CCC(=O)NCCCC[C@H](NC(=O)[C@H](CCC(N)=O)NC(=O)[C@H](CCCCN)NC(=O)[C@H](CO)NC(=O)[C@H](CC(C)C)NC(=O)[C@H](CC(=O)O)NC(=O)[C@H](CO)NC(=O)[C@@H](NC(=O)[C@H](Cc1ccccc1)NC(=O)[C@@H](NC(=O)CNC(=O)[C@H](CCC(N)=O)NC(=O)[C@@H](CO)NC(=O)[C@@H](N)Cc1c[nH]cn1)[C@@H](C)O)[C@@H](C)O)C(=O)N[C@@H](CC(=O)O)C(=O)N[C@@H](CO)C(=O)N[C@@H](CCCNC(=N)N)C(=O)N[C@@H](CCCNC(=N)N)C(=O)N[C@@H](C)C(=O)NC(C)(C)C(=O)N[C@@H](CC(=O)O)C(=O)N[C@@H](Cc1ccccc1)C(=O)N[C@H](C(=O)N[C@@H](CCC(=O)O)C(=O)N[C@@H](Cc1c[nH]c2ccccc12)C(=O)N[C@@H](CC(C)C)C(=O)N[C@@H](CCCCN)C(=O)N[C@@H](CC(N)=O)C(=O)NCC(=O)NCC(=O)N1CCC[C@H]1C(=O)N[C@@H](CO)C(=O)N[C@@H](CO)C(=O)NCC(=O)N[C@@H](C)C(=O)N1CCC[C@H]1C(=O)N1CCC[C@H]1C(=O)N1CCC[C@H]1C(=O)N[C@@H](CO)C(N)=O)[C@@H](C)CC)C(=O)O` [compound 118], the EC50 at human GLP-1 receptor (Table 5, cAMP, HEK-293) is 0.0153 nM; on human glucagon receptor (Table 5, cAMP, HEK-293), 0.0043 nM.

Take `CCCCCCCCCCCCCCCC(=O)NCCCC[C@H](NC(=O)[C@H](CCC(N)=O)NC(=O)[C@H](CCCCN)NC(=O)[C@H](CO)NC(=O)[C@H](CC(C)C)NC(=O)[C@H](CC(=O)O)NC(=O)[C@H](CO)NC(=O)[C@@H](NC(=O)[C@H](Cc1ccccc1)NC(=O)[C@@H](NC(=O)CNC(=O)[C@H](CCC(N)=O)NC(=O)[C@@H](CO)NC(=O)[C@@H](N)Cc1c[nH]cn1)[C@@H](C)O)[C@@H](C)O)C(=O)N[C@@H](CCC(=O)O)C(=O)N[C@@H](CO)C(=O)N[C@@H](CCCNC(=N)N)C(=O)N[C@@H](CCCNC(=N)N)C(=O)N[C@@H](C)C(=O)N[C@@H](CCC(N)=O)C(=O)N[C@@H](CC(=O)O)C(=O)N[C@@H](Cc1ccccc1)C(=O)N[C@H](C(=O)N[C@@H](CCC(=O)O)C(=O)N[C@@H](Cc1c[nH]c2ccccc12)C(=O)N[C@@H](CC(C)C)C(=O)N[C@@H](CCCCN)C(=O)N[C@@H](CC(N)=O)C(=O)NCC(=O)NCC(=O)N1CCC[C@H]1C(=O)N[C@@H](CO)C(=O)N[C@@H](CO)C(=O)NCC(=O)N[C@@H](C)C(=O)N1CCC[C@H]1C(=O)N1CCC[C@H]1C(=O)N1CCC[C@H]1C(=O)N[C@@H](CCCCN)C(N)=O)[C@@H](C)CC` [compound 114]: the EC50 turned out to be 0.0623 nM on human GLP-1 receptor (Table 5, cAMP, HEK-293) and 0.0311 nM at human glucagon receptor (Table 5, cAMP, HEK-293).

As usually defined, the EC50 is the concentration at which the effect is half-maximal.
